Assay results from EP4620949A1, “ACKR3 MODULATORS FOR CARDIOVASCULAR OR ANTIPLATELET THERAPY” (Eberhard Karls Universität Tübingen (Medizinische Fakultät), priority 2024, dated 2025).

The chains behind the UniProt entries cited, without tags or fusion partners. Where a name states a change or a piece, a line headed by the entry shows the natural chain unless it says otherwise.
UniProt P25106: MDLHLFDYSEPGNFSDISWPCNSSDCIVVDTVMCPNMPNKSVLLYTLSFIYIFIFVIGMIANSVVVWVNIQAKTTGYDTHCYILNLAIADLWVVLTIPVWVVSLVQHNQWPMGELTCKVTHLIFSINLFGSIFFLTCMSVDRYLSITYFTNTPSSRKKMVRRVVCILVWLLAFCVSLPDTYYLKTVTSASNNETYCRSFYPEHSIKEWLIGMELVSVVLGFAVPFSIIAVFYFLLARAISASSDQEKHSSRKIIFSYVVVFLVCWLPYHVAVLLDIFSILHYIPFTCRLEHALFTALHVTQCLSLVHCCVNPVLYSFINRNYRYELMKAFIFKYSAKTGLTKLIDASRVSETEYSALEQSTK

Target: T1, human ACKR3 (Homo sapiens, UniProt P25106)
T1 construct: expressed in transfected cells; host or cells: HEK293T
Test: ACKR3 β-Arrestin recruitment assay (NanoLuc complementation, NanoBiT) in HEK293T cells
Format: cell-based
Details: efficacy of CXCL12 at 300 nM set as 100%; average of three independent experiments
Protocol: ACKR3 β-Arrestin Recruitment Assay. […] T.; Encell, L. P.; Wood, K. V. Nanoluc complementation reporter optimized for accurate measurement of protein interactions in cells. […] B.; Reynders, N.; Vanderplasschen, A.; Ollert, M.; Bouvier, M.; Szpakowska, M.; Chevigné, A. Proadrenomedullin n-terminal 20 peptides (pamps) are agonists of the chemokine scavenger receptor ACKR3/CXCR7. […] The prepared cells were then treated with compounds at concentrations ranging from 0.3 nM to 100 µM. Induction of β-Arrestin recruitment to receptors was evaluated by measuring bioluminescence with a Mithras LB940 luminometer (Berthold Technologies).
All curves were fitted to data points generated from the mean of at least three independent experiments. Results with values of p < 0.05 were considered statistically significant.

CCN(CCCNC(=O)c1ccc(-c2ccccc2)s1)Cc1ccccc1 [Compound 23, N-(3-(benzyl(ethyl)amino)propyl)-5-phenylthiophene-2-carboxamide]
Efficacy (Emax) vs CXCL12: 95%
